Protein sequences, listed by entry. Tags and fused reporters are not part of them. Lines headed by an entry give the natural chain unless they say otherwise; changes in a name come on top.
UniProt P06700: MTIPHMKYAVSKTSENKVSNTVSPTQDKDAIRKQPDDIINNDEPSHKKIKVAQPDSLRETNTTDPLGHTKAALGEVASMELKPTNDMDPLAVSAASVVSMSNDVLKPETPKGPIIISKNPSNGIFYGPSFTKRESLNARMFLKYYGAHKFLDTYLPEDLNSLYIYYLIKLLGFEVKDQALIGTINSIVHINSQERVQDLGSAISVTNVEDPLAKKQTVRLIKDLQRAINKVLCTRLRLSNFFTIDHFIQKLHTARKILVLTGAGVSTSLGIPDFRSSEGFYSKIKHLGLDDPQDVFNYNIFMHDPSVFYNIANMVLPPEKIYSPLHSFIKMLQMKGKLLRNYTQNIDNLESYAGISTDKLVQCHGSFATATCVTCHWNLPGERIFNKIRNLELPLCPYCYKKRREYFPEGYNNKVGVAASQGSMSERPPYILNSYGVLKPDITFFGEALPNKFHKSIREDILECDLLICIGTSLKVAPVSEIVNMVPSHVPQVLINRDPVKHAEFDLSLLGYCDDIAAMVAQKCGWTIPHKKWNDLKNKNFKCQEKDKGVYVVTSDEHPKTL

In ChEMBL document CHEMBL3856182, “How much successful are the medicinal chemists in modulation of SIRT1: A critical review” (Eur J Med Chem, 2016):

Molecular target: NAD-dependent histone deacetylase SIR2 (Saccharomyces cerevisiae S288c, UniProt P06700)
Experiment: Inhibition of recombinant yeast Sir2p using acetylated HeLa histones as substrate measured after 2 hrs in presence of NAD by scintillation counting method

IC50: 68 µM
Compound: CC(NC(=O)c1ccccc1/N=C/c1c(O)ccc2ccccc12)c1ccccc1 (stereo unspecified) [SIRTINOL]
